The values below come from patent US7399744B2, “Methods for affecting body composition” (Amylin Pharmaceuticals, Inc., priority 2004, dated 2008).

Each structure is given as a SMILES string. Like-named read-outs stand apart in the source and are kept apart here.

For test [1], the system named is insulin-stimulated glycogen synthesis in soleus muscle. The test can be described thus: Soleus muscle assay. It counts as cell-based, rat. The settings on record: for EC50: rat soleus muscle, […] insulin, inhibition of glucose incorporation into glycogen.
Test [2] deals with T1, amylin receptors (Rattus norvegicus, UniProt P32214+Q9JJ74).
T1 construct: This basal forebrain tissue, containing the nucleus accumbens and surrounding regions, was weighed and homogenized; from tissue; host or cells: rat basal forebrain (nucleus accumbens and surrounding regions) membranes
T1 sequence (P32214 25-516): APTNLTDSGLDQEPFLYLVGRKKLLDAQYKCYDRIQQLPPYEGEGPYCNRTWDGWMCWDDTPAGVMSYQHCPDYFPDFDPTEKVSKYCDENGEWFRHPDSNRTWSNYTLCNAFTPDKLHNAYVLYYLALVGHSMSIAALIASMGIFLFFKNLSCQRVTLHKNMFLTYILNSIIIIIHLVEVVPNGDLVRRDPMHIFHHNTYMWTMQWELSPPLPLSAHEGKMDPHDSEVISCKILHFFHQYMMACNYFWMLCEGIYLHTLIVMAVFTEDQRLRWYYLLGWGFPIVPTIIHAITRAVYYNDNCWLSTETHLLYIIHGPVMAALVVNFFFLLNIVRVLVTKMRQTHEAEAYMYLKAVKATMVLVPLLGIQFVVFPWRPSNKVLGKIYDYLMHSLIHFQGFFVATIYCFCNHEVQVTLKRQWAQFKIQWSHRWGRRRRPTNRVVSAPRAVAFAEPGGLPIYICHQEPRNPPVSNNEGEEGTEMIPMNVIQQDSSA
T1 sequence (Q9JJ74 27-148): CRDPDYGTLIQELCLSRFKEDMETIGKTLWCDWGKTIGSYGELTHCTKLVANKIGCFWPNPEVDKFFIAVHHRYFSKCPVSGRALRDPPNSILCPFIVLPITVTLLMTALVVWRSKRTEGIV
The test can be described thus: Receptor binding assay (competition with 125I Bolton Hunter rat amylin, basal forebrain membranes).

In turn, `CC[C@H](C)[C@H](NC(=O)[C@H](C)NC(=O)CNC(=O)[C@H](Cc1ccccc1)NC(=O)[C@H](CC(N)=O)NC(=O)[C@H](CC(N)=O)NC(=O)[C@H](CO)NC(=O)[C@H](CO)NC(=O)[C@H](Cc1c[nH]cn1)NC(=O)[C@@H](NC(=O)[C@H](CC(C)C)NC(=O)[C@H](Cc1ccccc1)NC(=O)[C@H](CC(N)=O)NC(=O)[C@H](C)NC(=O)[C@H](CC(C)C)NC(=O)[C@H](CCCNC(=N)N)NC(=O)[C@H](CCC(N)=O)NC(=O)[C@@H](NC(=O)[C@H](C)NC(=O)[C@@H]1CSSC[C@H](NC(=O)[C@@H](N)CCCCN)C(=O)N[C@@H](CC(N)=O)C(=O)N[C@@H]([C@@H](C)O)C(=O)N[C@@H](C)C(=O)N[C@@H]([C@@H](C)O)C(=O)N1)[C@@H](C)O)C(C)C)C(=O)N[C@@H](CC(C)C)C(=O)N[C@@H](CO)C(=O)N1CCC[C@H]1C(=O)N[C@H](C(=O)N[C@@H](CC(N)=O)C(=O)N[C@H](C(=O)NCC(=O)N[C@@H](CO)C(=O)N[C@@H](CC(N)=O)C(=O)N[C@H](C(=O)N[C@@H](Cc1ccc(O)cc1)C(N)=O)[C@@H](C)O)C(C)C)[C@@H](C)O` [^29Pro-h-Amylin] had an EC50 in test [1] of 3.75 nM. Further, the IC50 in test [2] is 0.064 nM.
As for `CC[C@H](C)[C@H](NC(=O)[C@@H]1CCCN1C(=O)CNC(=O)[C@H](Cc1ccccc1)NC(=O)[C@H](CC(N)=O)NC(=O)[C@H](CC(N)=O)NC(=O)[C@H](CO)NC(=O)[C@H](CO)NC(=O)[C@H](Cc1c[nH]cn1)NC(=O)[C@@H](NC(=O)[C@H](CC(C)C)NC(=O)[C@H](Cc1ccccc1)NC(=O)[C@H](CC(N)=O)NC(=O)[C@H](C)NC(=O)[C@H](CC(C)C)NC(=O)[C@H](CCCNC(=N)N)NC(=O)[C@H](CCC(N)=O)NC(=O)[C@@H](NC(=O)[C@H](C)NC(=O)[C@@H]1CSSC[C@H](NC(=O)[C@@H](N)CCCCN)C(=O)N[C@@H](CC(N)=O)C(=O)N[C@@H]([C@@H](C)O)C(=O)N[C@@H](C)C(=O)N[C@@H]([C@@H](C)O)C(=O)N1)[C@@H](C)O)C(C)C)C(=O)N[C@@H](CC(C)C)C(=O)N1CCC[C@H]1C(=O)N[C@@H](CO)C(=O)N[C@H](C(=O)N[C@@H](CC(N)=O)C(=O)N[C@H](C(=O)NCC(=O)N[C@@H](CO)C(=O)N[C@@H](CC(N)=O)C(=O)N[C@H](C(=O)N[C@@H](Cc1ccc(O)cc1)C(N)=O)[C@@H](C)O)C(C)C)[C@@H](C)O` [^25,28Pro-h-Amylin], the half-maximal effective concentration (EC50) in test [1] came out at 13.2 nM. For the same molecule, the IC50 in test [2] (read-out: Receptor Binding) amounted to 0.026 nM.
For the molecule `CC[C@H](C)[C@H](NC(=O)[C@H](C)NC(=O)CNC(=O)[C@H](Cc1ccccc1)NC(=O)[C@H](CC(N)=O)NC(=O)[C@H](CC(N)=O)NC(=O)[C@H](CO)NC(=O)[C@H](CO)NC(=O)[C@H](Cc1c[nH]cn1)NC(=O)[C@@H](NC(=O)[C@H](CC(C)C)NC(=O)[C@H](Cc1ccccc1)NC(=O)[C@H](CC(N)=O)NC(=O)[C@H](C)NC(=O)[C@H](CC(C)C)NC(=O)[C@H](CCCNC(=N)N)NC(=O)[C@H](CCC(N)=O)NC(=O)[C@@H](NC(=O)[C@H](C)NC(=O)[C@@H]1CSSC[C@H](NC(=O)[C@@H](N)CO)C(=O)N[C@@H](CC(N)=O)C(=O)N[C@@H]([C@@H](C)O)C(=O)N[C@@H](C)C(=O)N[C@@H]([C@@H](C)O)C(=O)N1)[C@@H](C)O)C(C)C)C(=O)N[C@@H](CC(C)C)C(=O)N[C@@H](CO)C(=O)N[C@@H](CO)C(=O)N[C@H](C(=O)N[C@@H](CC(N)=O)C(=O)N[C@H](C(=O)NCC(=O)N[C@@H](CO)C(=O)N[C@@H](CC(N)=O)C(=O)N[C@H](C(=O)N[C@@H](Cc1ccc(O)cc1)C(N)=O)[C@@H](C)O)C(C)C)[C@@H](C)O` [^1Ser-h-Amylin], the EC50 in test [1] came out at 8.7 nM. Further, the IC50 in test [2] is 0.033 nM.
`CC[C@H](C)[C@H](NC(=O)[C@@H]1CCCN1C(=O)CNC(=O)[C@H](Cc1ccccc1)NC(=O)[C@H](CC(N)=O)NC(=O)[C@H](CC(N)=O)NC(=O)[C@H](CO)NC(=O)[C@H](CO)NC(=O)[C@H](Cc1c[nH]cn1)NC(=O)[C@@H](NC(=O)[C@H](CC(C)C)NC(=O)[C@H](Cc1ccccc1)NC(=O)[C@H](CC(N)=O)NC(=O)[C@H](C)NC(=O)[C@H](CC(C)C)NC(=O)[C@H](CCCNC(=N)N)NC(=O)[C@H](CCC(N)=O)NC(=O)[C@@H](NC(=O)[C@H](C)NC(=O)[C@@H]1CSSC[C@H](N)C(=O)N[C@@H](CC(N)=O)C(=O)N[C@@H]([C@@H](C)O)C(=O)N[C@@H](C)C(=O)N[C@@H]([C@@H](C)O)C(=O)N1)[C@@H](C)O)C(C)C)C(=O)N[C@@H](CC(C)C)C(=O)N1CCC[C@H]1C(=O)N[C@@H](CO)C(=O)N[C@H](C(=O)N[C@@H](CC(N)=O)C(=O)N[C@H](C(=O)NCC(=O)N[C@@H](CO)C(=O)N[C@@H](CC(N)=O)C(=O)N[C@H](C(=O)N[C@@H](Cc1ccc(O)cc1)C(N)=O)[C@@H](C)O)C(C)C)[C@@H](C)O` [des-^1Lys^25,28Pro-h-Amylin] gave an EC50 in test [1] of 7.7 nM. Also, the IC50 in test [2] (read-out: Receptor Binding) turned out to be 0.085 nM.
`CC[C@H](C)[C@H](NC(=O)[C@@H]1CCCN1C(=O)CNC(=O)[C@H](Cc1ccccc1)NC(=O)[C@H](CC(N)=O)NC(=O)[C@H](CC(N)=O)NC(=O)[C@H](CO)NC(=O)[C@H](CO)NC(=O)[C@H](Cc1c[nH]cn1)NC(=O)[C@@H](NC(=O)[C@H](CC(C)C)NC(=O)[C@H](Cc1ccccc1)NC(=O)[C@H](CC(N)=O)NC(=O)[C@H](C)NC(=O)[C@H](CC(C)C)NC(=O)[C@H](CCCNC(=N)N)NC(=O)[C@H](CCC(N)=O)NC(=O)[C@@H](NC(=O)[C@H](C)NC(=O)[C@@H]1CSSC[C@H](N)C(=O)N[C@@H](CC(N)=O)C(=O)N[C@@H]([C@@H](C)O)C(=O)N[C@@H](C)C(=O)N[C@@H]([C@@H](C)O)C(=O)N1)[C@@H](C)O)C(C)C)C(=O)N[C@@H](CC(C)C)C(=O)N1CCC[C@H]1C(=O)N1CCC[C@H]1C(=O)N[C@H](C(=O)N[C@@H](CC(N)=O)C(=O)N[C@H](C(=O)NCC(=O)N[C@@H](CO)C(=O)N[C@@H](CC(N)=O)C(=O)N[C@H](C(=O)N[C@@H](Cc1ccc(O)cc1)C(N)=O)[C@@H](C)O)C(C)C)[C@@H](C)O` [des-^1Lys^25,28,29Pro-h-Amylin]: in test [1], the “amylin agonist action in the soleus muscle assay” value is “act as amylin agonists”, the “antagonist activity as measured by the soleus muscle assay” value is “negligible” and a half-maximal effect (EC50) was put at 4.15 nM. Moreover, in test [2], the “compete with amylin in the receptor binding assay” value is “compete with amylin”. The IC50 in test [2] (read-out: Receptor Binding) was 0.014 nM.
On to `CC[C@H](C)[C@H](NC(=O)[C@@H]1CCCN1C(=O)CNC(=O)[C@H](Cc1ccccc1)NC(=O)[C@H](CC(N)=O)NC(=O)[C@H](CC(N)=O)NC(=O)[C@H](CO)NC(=O)[C@H](CO)NC(=O)[C@H](CCCNC(=N)N)NC(=O)[C@@H](NC(=O)[C@H](CC(C)C)NC(=O)[C@H](Cc1ccccc1)NC(=O)[C@H](CC(N)=O)NC(=O)[C@H](C)NC(=O)[C@H](CC(C)C)NC(=O)[C@H](CCCNC(=N)N)NC(=O)[C@H](CCC(N)=O)NC(=O)[C@@H](NC(=O)[C@H](C)NC(=O)[C@@H]1CSSC[C@H](NC(=O)[C@@H](N)CCCCN)C(=O)N[C@@H](CC(N)=O)C(=O)N[C@@H]([C@@H](C)O)C(=O)N[C@@H](C)C(=O)N[C@@H]([C@@H](C)O)C(=O)N1)[C@@H](C)O)C(C)C)C(=O)N[C@@H](CC(C)C)C(=O)N1CCC[C@H]1C(=O)N1CCC[C@H]1C(=O)N[C@H](C(=O)N[C@@H](CC(N)=O)C(=O)N[C@H](C(=O)NCC(=O)N[C@@H](CO)C(=O)N[C@@H](CC(N)=O)C(=O)N[C@H](C(=O)N[C@@H](Cc1ccc(O)cc1)C(N)=O)[C@@H](C)O)C(C)C)[C@@H](C)O` [^18Arg^25,28,29Pro-h-Amylin], for which, in test [1], the “amylin agonist action in the soleus muscle assay” value was “act as amylin agonists”, the “antagonist activity as measured by the soleus muscle assay” value was “negligible” and the EC50 was determined as 1.25 nM. Besides, the “compete with amylin in the receptor binding assay” value in test [2] is “compete with amylin”. Moreover, in test [2] (read-out: Receptor Binding), the IC50 came to 0.021 nM.
The matching figures for `CC[C@H](C)[C@H](NC(=O)[C@@H]1CCCN1C(=O)CNC(=O)[C@H](Cc1ccccc1)NC(=O)[C@H](CC(N)=O)NC(=O)[C@H](CC(N)=O)NC(=O)[C@H](CO)NC(=O)[C@H](CO)NC(=O)[C@H](CCCNC(=N)N)NC(=O)[C@@H](NC(=O)[C@H](CC(C)C)NC(=O)[C@H](Cc1ccccc1)NC(=O)[C@H](CC(N)=O)NC(=O)[C@H](C)NC(=O)[C@H](CC(C)C)NC(=O)[C@H](CCCNC(=N)N)NC(=O)[C@H](CCC(N)=O)NC(=O)[C@@H](NC(=O)[C@H](C)NC(=O)[C@@H]1CSSC[C@H](N)C(=O)N[C@@H](CC(N)=O)C(=O)N[C@@H]([C@@H](C)O)C(=O)N[C@@H](C)C(=O)N[C@@H]([C@@H](C)O)C(=O)N1)[C@@H](C)O)C(C)C)C(=O)N[C@@H](CC(C)C)C(=O)N1CCC[C@H]1C(=O)N[C@@H](CO)C(=O)N[C@H](C(=O)N[C@@H](CC(N)=O)C(=O)N[C@H](C(=O)NCC(=O)N[C@@H](CO)C(=O)N[C@@H](CC(N)=O)C(=O)N[C@H](C(=O)N[C@@H](Cc1ccc(O)cc1)C(N)=O)[C@@H](C)O)C(C)C)[C@@H](C)O` [des-^1Lys^18Arg^25,28Pro-h-Amylin]: “act as amylin agonists”, “negligible”, 3.77 nM, “compete with amylin” and 0.082 nM.

One may read the EC50 as the concentration that produces a half-maximal response.
